Laboratory results: patent US9580430B2, “9H-pyrimido[4,5-B]indoles and related analogs as BET bromodomain inhibitors” (THE REGENTS OF THE UNIVERSITY OF MICHIGAN, priority 2014, dated 2017)

Experiments:
[1] = target: recombinant BRD4 BD1 (Homo sapiens, UniProt O60885); assay: Competitive fluorescence-polarization (FP) binding assay, BRD4 BD1; details: read-out: IC50 (nM) BRD4 BD1, protein 10 nM, probe 1.5 nM, tested form: TFA salt
[2] = target: recombinant BRD4 BD2 (Homo sapiens, UniProt O60885); assay: Competitive fluorescence-polarization (FP) binding assay, BRD4 BD2; details: read-out: IC50 (nM) BRD4 BD2, protein 6 nM, probe 1.5 nM, tested form: TFA salt

| SMILES | IC50 [1] [nM] | IC50 [2] [nM] |
| --- | --- | --- |
| COc1cc2c(cc1-c1c(C)noc1C)[nH]c1nc(C)nc(Sc3cccc(Cl)c3)c12 | > 1000 | > 1000 |
| COc1cc2c(cc1-c1c(C)noc1C)[nH]c1nc(C)nc(Sc3ccccc3Cl)c12 | > 1000 | > 1000 |
